## Ab-14 heavy chain CDR variants: yeast mating affinities

Reference: Engelhart et al. 2022, doi:10.1038/s41597-022-01779-4. File: FLAb, binding data.

Target peptide (SARS-CoV-2 spike, HR2 region): PDVDLGDISGINAS

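In library AAYL49, one, two or three CDR residues were substituted; doubles and triples were drawn at random. In AlphaSeq, yeast of one mating type display the scFv and yeast of the other type display the target. Binding brings cells together so that they mate, and sequencing counts the barcode pairs among the diploids. Each replicate has its own calibration line, from reference interactions of the BCL2 family. Mating was done three times.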

Parent scFv Ab-14: VH joined to VL by a 15-residue (Gly4Ser)3 linker. Changes lie in the heavy chain CDRs alone.
VH: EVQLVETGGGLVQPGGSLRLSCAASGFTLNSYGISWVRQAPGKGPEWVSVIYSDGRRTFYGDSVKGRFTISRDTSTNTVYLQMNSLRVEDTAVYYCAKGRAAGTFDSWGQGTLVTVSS
VL: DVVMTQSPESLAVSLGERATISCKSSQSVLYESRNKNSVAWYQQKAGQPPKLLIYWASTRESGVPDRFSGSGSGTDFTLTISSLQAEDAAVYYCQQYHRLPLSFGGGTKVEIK

Each variant is given by its three heavy chain CDRs, as the data file delimits them; those of the parent are GFTLNSYGIS, VIYSDGRRTFYGDSVK, GRAAGTFDS. Numbers give log10(Kd / nM), so 0 is 1 nM and 3 is 1 µM. Smaller is tighter. The mean shown is taken over the replicates in which the pair was detected. Where no diploid with the target was found in that replicate, the entry reads "n.d.": below detection, most likely a poor binder, though not proof of it. Empty control strains, which show no peptide, gave a signal in 15% of pairings with library AAYL49; the median was 4.06 and 95% of these signals were weaker than 2.83. No background was subtracted. The control count says in how many pairings with the empty strains this scFv gave a signal, with their mean in brackets.

CDR-H1	CDR-H2	CDR-H3	log10 Kd, replicates	mean log10 Kd (nM)	empty controls
GFTLNSYGIS	VIYQMGRRTFYGDSAK	GRAAGTFDS	n.d. n.d. n.d.	n.d.	0/9
GFTLNSEGIS	VIYSDGRRTFYGDSVK	GIAAGEFDS	n.d. n.d. n.d.	n.d.	1/9 (4.47)
GFTLNSYGIS	VICSDGRRTFYGDSVK	GWNAGTFDS	n.d. 4.31 5.15	4.73	4/9 (4.83)
GFTLWSYGIS	VIYSDGRRIFYGDSDK	GRAAGTFDS	n.d. n.d. n.d.	n.d.	3/9 (4.35)
GFTLNSSGIS	VIKSDGRRDFYGDSVK	GRAAGTFDS	n.d. n.d. n.d.	n.d.	1/9 (2.74)
EFTLNSYGIS	VIYSDGRRTFYGDYVK	GRAALTFDS	n.d. n.d. n.d.	n.d.	1/9 (3.73)
GFTTASYGIS	VIYSDGRRTFYDDSVK	GRAAGTFDS	2.21 2.80 3.69	2.90	2/9 (3.11)
GFTLNSYGIS	VIYSDGIRTFYGMSVK	GRWAGTFDS	2.66 2.47 2.81	2.65	2/9 (3.30)
GFTENSYGIS	VIYSDGRMTFYGDSVK	SRAAGTFDS	n.d. 4.19 5.19	4.69	5/9 (3.95)
GNTLISYIIS	VIYSDGRRTFYGDSVK	GRAAGTFDS	4.23 n.d. 5.17	4.70	4/9 (4.22)
GFTRNFYRIS	VIYSDGRRTFYGDSVK	GRAAGTFDS	n.d. n.d. n.d.	n.d.	0/9
GFTLNSYGIS	VIYSDFRRTFYGDSVK	GRMATTFDS	5.06 3.79 n.d.	4.43	5/9 (3.90)
GFTLCSYGIS	MIYQDGRRTFYGDSVK	GRAAGTFDS	n.d. n.d. n.d.	n.d.	2/9 (2.45)
GFTLNSYGNF	VPYSDGRRTFYGDSVK	GRAAGTFDS	n.d. n.d. n.d.	n.d.	1/9 (4.68)
GFHLNSYGIS	VIYSDGRRTGYGDSVK	GRAAGTFDS	0.73 1.11 1.00	0.95	0/9
GFTLNSDGIS	VIYSDERRTFQGDSVK	GRAAGTFDS	n.d. n.d. n.d.	n.d.	2/9 (3.06)
GFTRNSNGIS	VIYSDGRRTFYGDSVK	GTAAGTFDS	n.d. 3.68 n.d.	3.68	3/9 (4.60)
EFTLNSYGIS	VIYSDGRLTFYGDSVA	GRAAGTFDS	5.77 4.22 4.65	4.88	4/9 (3.64)
GFTLNSYGIS	VIYSDGRRQFYGASVK	GRAAGTFDI	3.97 4.30 2.72	3.66	3/9 (3.27)
GFTLNSYGKS	VIYSDGRRTFYGDSVK	ERAAGTFDS	3.71 4.83 4.55	4.36	1/9 (4.00)
GFTLNSYVIS	VIYSDGRHTPYGDSVK	GRAAGTFDS	n.d. 3.94 n.d.	3.94	0/9
GFTLNSYGMS	VIYSDGRRTFYYDSVK	GRAAGTFDS	n.d. n.d. 3.08	3.08	0/9
RFTLFSYGIS	VIYSDGRRTFYGDSVK	GRAAGTFAS	n.d. n.d. n.d.	n.d.	0/9
GFTPNSYGIS	VIYSDSRRTFYGDSAK	GRAAGTFDS	n.d. n.d. n.d.	n.d.	0/9
GFFLNSYGIS	VIYSPGRRTKYGDSVK	GRAAGTFDS	n.d. 3.36 3.86	3.61	1/9 (3.10)
GFTLNSYGFS	VIYSDGRRTFYGDQVK	GRLAGTFDS	n.d. n.d. 3.44	3.44	1/9 (3.96)
GQTLNSYGQS	VIYSDGRRTFYGDSVK	GRAAGTFDS	n.d. n.d. n.d.	n.d.	0/9
GFTLNSYGIS	VIYSDGRRTFQGDSTI	GRAAGTFDS	n.d. n.d. n.d.	n.d.	0/9
GFTLNSYGIS	VIYSDGRRTFYGTSVK	GRAAGTFDS	1.67 2.61 1.11	1.80	0/9
DFTLNSYGIS	VIYSDGRRTFAGDSVK	GRAAGTADS	3.11 n.d. n.d.	3.11	2/9 (3.57)
GFTLNSYGIS	VIISDGRRTFYDDSVK	GRQAGTFDS	4.54 3.50 n.d.	4.02	1/9 (2.90)
GYTLNSYNIS	VIYSDGRRTFYGSSVK	GRAAGTFDS	n.d. n.d. n.d.	n.d.	0/9
EFTLNSYGIS	VICSDGRRTFYGDSVK	GRAAGTFDS	n.d. n.d. n.d.	n.d.	1/9 (3.68)
GFTLNSYGIS	VIYSDGRRCFYGYSVK	GRAAGTFDS	n.d. n.d. n.d.	n.d.	0/9
GFTLNSYGIS	VIYSDGRRTTTGDSVK	GDAAGTFDS	6.07 4.17 n.d.	5.12	4/9 (3.75)
GFTGNSYGIS	VIYSPGRRTFYGDSVK	GRAAITFDS	n.d. 4.00 n.d.	4.00	3/9 (3.85)
GFTLNSYGIY	VIYSFGRRTAYGDSVK	GRAAGTFDS	4.37 3.74 n.d.	4.06	6/9 (4.30)
GFTLNSYGIS	VIYSDTRQTFYGVSVK	GRAAGTFDS	n.d. 4.08 n.d.	4.08	4/9 (4.27)
QFTLNSYGIS	VIYMDGRRTFQGDSVK	GRAAGTFDS	3.08 n.d. n.d.	3.08	1/9 (4.24)
GFTLNSYGIS	VIYSDGRRHFYGDTTK	GRAAGTFDS	3.84 4.50 n.d.	4.17	2/9 (3.57)
GFTLSSYGIS	VIYSDGRRTFYADSVV	GRAAGTFDS	1.60 1.89 1.59	1.69	3/9 (4.25)
GFTLNSYGIS	VIYSRGRRTFGGDSVK	GRLAGTFDS	n.d. n.d. n.d.	n.d.	1/9 (2.56)

A selection of 4 entries from above:

CDR-H1	CDR-H2	CDR-H3	log10 Kd, replicates	mean log10 Kd (nM)	empty controls
GFTLNSYGIS	VIYSDGIRTFYGMSVK	GRWAGTFDS	2.66 2.47 2.81	2.65	2/9 (3.30)
GFTLNSYGNF	VPYSDGRRTFYGDSVK	GRAAGTFDS	n.d. n.d. n.d.	n.d.	1/9 (4.68)
EFTLNSYGIS	VIYSDGRLTFYGDSVA	GRAAGTFDS	5.77 4.22 4.65	4.88	4/9 (3.64)
GFHLNSYGIS	VIYSDGRRTGYGDSVK	GRAAGTFDS	0.73 1.11 1.00	0.95	0/9